According to PubChem BioAssay (NCI):
The list shows a part of the results, in another mix than the full data.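 48-hour exposure, single concentration, 96-well plates; percent growth endpoint where 0 means no net growth. Active: below 10.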 Activity calls are given as the source filed them.

Legend:
Test in all cases: NCI-60 one-dose screen, 48 h (100 = growth as untreated, 0 = no growth, -100 = all killed)
Settings in all cases: 10 µM
NCI-H23 lung = test system: NCI-H23 lung
NCI-H226 lung = test system: NCI-H226 lung
NCI-H322M lung = test system: NCI-H322M lung
HOP-62 NSCLC = test system: HOP-62 NSCLC
NCI-H460 lung = test system: NCI-H460 lung
A549/ATCC NSCLC = test system: A549/ATCC NSCLC
786-0 renal = test system: 786-0 renal
COLO 205 colon = test system: COLO 205 colon
DU-145 prostate = test system: DU-145 prostate
K-562 leukemia = test system: K-562 leukemia
MALME-3M melanoma = test system: MALME-3M melanoma
MDA-MB-231 breast = test system: MDA-MB-231 breast
RXF 393 renal = test system: RXF 393 renal
SF-268 CNS = test system: SF-268 CNS
SF-295 CNS = test system: SF-295 CNS
SF-539 CNS = test system: SF-539 CNS
UACC-257 melanoma = test system: UACC-257 melanoma
M14 melanoma = test system: M14 melanoma
NCI-H522 lung = test system: NCI-H522 lung
HOP-92 NSCLC = test system: HOP-92 NSCLC

Measured: growth

COc1ccccc1-c1ccccn1.O=[N+]([O-])c1cc([N+](=O)[O-])c(O)c([N+](=O)[O-])c1
inactive: NCI-H23 lung 110% | NCI-H226 lung 92.1% | NCI-H322M lung 95.3% | HOP-62 NSCLC 108% | NCI-H460 lung 108% | A549/ATCC NSCLC 102% | 786-0 renal 101% | COLO 205 colon 117% | DU-145 prostate 111% | K-562 leukemia 107% | MALME-3M melanoma 107% | MDA-MB-231 breast 101% | RXF 393 renal 96.1% | SF-268 CNS 112% | SF-295 CNS 71.5% | SF-539 CNS 93.7% | UACC-257 melanoma 105% | M14 melanoma 101%

Cc1ccc(Nc2c([N+](=O)[O-])cc([N+](=O)[O-])cc2[N+](=O)[O-])cc1
inactive: NCI-H23 lung 91% | NCI-H226 lung 84.5% | NCI-H322M lung 87.8% | NCI-H460 lung 91.6% | NCI-H522 lung 43% | A549/ATCC NSCLC 91.8% | 786-0 renal 106% | COLO 205 colon 75% | DU-145 prostate 105% | K-562 leukemia 62% | MALME-3M melanoma 89.3% | MDA-MB-231 breast 74.3% | RXF 393 renal 90.3% | SF-268 CNS 87.2% | SF-539 CNS 102% | UACC-257 melanoma 86.7% | M14 melanoma 104%

N=C(N)N(N)[N+](=O)[O-]
inactive: NCI-H23 lung 107% | NCI-H226 lung 107% | HOP-62 NSCLC 106% | NCI-H460 lung 106% | A549/ATCC NSCLC 103% | 786-0 renal 108% | COLO 205 colon 107% | DU-145 prostate 104% | K-562 leukemia 96.2% | MDA-MB-231 breast 104% | RXF 393 renal 121% | SF-268 CNS 101% | SF-295 CNS 106% | SF-539 CNS 101% | UACC-257 melanoma 107% | M14 melanoma 104%

CC[N+](C)(CC)Cc1cc(Cc2ccccc2)ccc1OC(=O)N(C)C
inactive: NCI-H23 lung 99% | NCI-H226 lung 98.9% | NCI-H322M lung 99.2% | HOP-62 NSCLC 101% | NCI-H460 lung 111% | HOP-92 NSCLC 113% | NCI-H522 lung 101% | A549/ATCC NSCLC 99.8% | 786-0 renal 107% | COLO 205 colon 101% | DU-145 prostate 116% | K-562 leukemia 93.3% | MALME-3M melanoma 97.3% | MDA-MB-231 breast 102% | SF-268 CNS 103% | SF-295 CNS 98.8% | SF-539 CNS 102% | UACC-257 melanoma 109% | M14 melanoma 107%

CN(C)Nc1c([N+](=O)[O-])cc([N+](=O)[O-])cc1[N+](=O)[O-]
inactive: NCI-H23 lung 111% | NCI-H226 lung 101% | NCI-H322M lung 88.6% | HOP-62 NSCLC 108% | NCI-H460 lung 107% | HOP-92 NSCLC 127% | 786-0 renal 105% | COLO 205 colon 96.5% | DU-145 prostate 110% | K-562 leukemia 94.3% | MALME-3M melanoma 90% | MDA-MB-231 breast 114% | RXF 393 renal 108% | SF-268 CNS 105% | SF-295 CNS 110% | SF-539 CNS 108% | M14 melanoma 102%

CCN(CC)CCS
inactive: NCI-H23 lung 102% | NCI-H226 lung 89.4% | NCI-H322M lung 93.4% | HOP-62 NSCLC 104% | NCI-H460 lung 110% | HOP-92 NSCLC 90.2% | A549/ATCC NSCLC 101% | 786-0 renal 95.9% | COLO 205 colon 116% | DU-145 prostate 104% | K-562 leukemia 105% | MALME-3M melanoma 92.3% | MDA-MB-231 breast 112% | RXF 393 renal 105% | SF-268 CNS 99.9% | SF-539 CNS 90.5% | UACC-257 melanoma 99.4% | M14 melanoma 97.5%

COC(=O)C(O)(c1ccccc1)c1ccccc1
inactive: NCI-H23 lung 105% | NCI-H226 lung 94.7% | NCI-H322M lung 106% | NCI-H460 lung 106% | HOP-92 NSCLC 95% | NCI-H522 lung 100% | A549/ATCC NSCLC 98.2% | 786-0 renal 99.7% | COLO 205 colon 103% | DU-145 prostate 110% | K-562 leukemia 118% | MALME-3M melanoma 98.4% | MDA-MB-231 breast 108% | RXF 393 renal 99.9% | SF-268 CNS 113% | SF-295 CNS 95.2% | SF-539 CNS 113% | UACC-257 melanoma 101% | M14 melanoma 100%

NC(=NCCN/C(N)=N/[N+](=O)[O-])N[N+](=O)[O-]
inactive: NCI-H23 lung 94.5% | NCI-H226 lung 105% | NCI-H322M lung 113% | HOP-62 NSCLC 82.3% | NCI-H460 lung 103% | HOP-92 NSCLC 93% | NCI-H522 lung 85.6% | A549/ATCC NSCLC 79.4% | 786-0 renal 90.1% | COLO 205 colon 110% | DU-145 prostate 106% | K-562 leukemia 105% | MALME-3M melanoma 127% | MDA-MB-231 breast 113% | SF-268 CNS 98.2% | SF-295 CNS 91.8% | SF-539 CNS 102% | UACC-257 melanoma 85.8% | M14 melanoma 86.8%
